For one molecule, IC50 results are on record in BindingDB's records for doi:10.1021/acsmedchemlett.8b00158 (Utah State University, 2018).

The test can be described thus: Inhibition of recombinant human Cx26 expressed in Escherichia coli LB2003 assessed as reduction in cell growth measured after 18 hrs.

For the molecule `NC[C@H]1O[C@H](O[C@H]2[C@H](O)[C@@H](O[C@@H]3O[C@H](COCc4ccccc4)[C@@H](OCc4ccccc4)[C@H](N)[C@H]3O)[C@H](N)C[C@@H]2N)[C@H](O)[C@@H](O)[C@@H]1O`, the 50% inhibitory concentration (IC50) amounted to 7.6 µM.

A word on the IC50: it is the point on the concentration scale where inhibition reaches its midpoint.
